Results reported in US10159656B2, “Methods for use of epinephrine fine particles for treatment of conditions responsive to epinephrine” (NOVA SOUTHEASTERN UNIVERSITY, priority 2013, dated 2018).

Conditions: after processing, one cycle at 30,000 Psi

For `CNC[C@H](O)c1ccc(O)c(O)c1.O=C(O)C(O)C(O)C(=O)O` [EpiBit After Processing, epinephrine bitartrate microcrystals], the “Pdi (polydispersity index)” value was 0.165.
